Read-outs that look alike come from different tables or passages of the source.
Target: T1, rat A3 receptor (Rattus norvegicus, UniProt P28647)
T1 sequence (P28647 1-320): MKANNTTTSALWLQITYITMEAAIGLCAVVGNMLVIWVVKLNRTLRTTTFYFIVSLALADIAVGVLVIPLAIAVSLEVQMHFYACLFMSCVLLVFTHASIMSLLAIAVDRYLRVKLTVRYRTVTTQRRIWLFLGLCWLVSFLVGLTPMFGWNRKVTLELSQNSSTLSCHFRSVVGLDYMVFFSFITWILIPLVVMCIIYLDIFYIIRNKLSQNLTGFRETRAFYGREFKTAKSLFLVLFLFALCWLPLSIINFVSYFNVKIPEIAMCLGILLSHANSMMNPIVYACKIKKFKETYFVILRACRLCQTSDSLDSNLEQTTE
Assay: biochemical
Assay type: binding
Conditions: for inhibition at 100 µM: read-out: A3 percent displacement; for IC50: read-out: IC50 at A3 receptors

[1] = CHO cells stably transfected with rat A3 cDNA, [125I]APNEA or [125I]AB-MECA, read-out: A3 affinity Ki

Ki [1] | inhibition at 100 µM | SMILES | further results
10.7 ± 1.2 nM |  | CCNC(=O)[C@H]1O[C@@H](n2cnc3c(NCc4cccc(F)c4)ncnc32)[C@H](O)[C@@H]1O [Compound 57, N^6-(3-fluorobenzyl)adenosine-5'-N-ethyluronamide] | 
 | 13.2 ± 12.4% | Cn1c(=O)c2ncn(C)c2n(C)c1=O [Compound 113, 1,3,9-trimethylX, reference compound] | 
770 ± 234 nM |  | OC[C@H]1O[C@@H](n2cnc3c(NC4CCCC4)cc(Cl)nc32)[C@H](O)[C@@H]1O [Compound 15, 1-deaza-2-chloro-N^6-cyclopentyladenosine] | potency relative to 2-chloro-CPA at A3 (in words): three-fold less potent
 | 24.5 ± 10.2% | Nc1ccn([C@@H]2O[C@H](CO)[C@@H](O)[C@H]2O)c(=O)n1 [Compound 84, cytidine, reference compound] | 
 |  | CCCn1c(=O)c2c(ncn2[C@@H]2O[C@H](CO)[C@@H](O)[C@H]2O)n(CCC)c1=O [Compound 118, 1,3-di-n-propylxanthine-7-β-D-ribofuranoside, reference compound] | A1/A3: 0.20; A2/A3: > 1
 |  | O=C(NC1CC1)[C@H]1O[C@@H](n2cnc3c(NCc4ccccc4)ncnc32)[C@H](O)[C@@H]1O [Compound 24, N^6-benzyladenosine-5'-N-cyclopropyluronamide] | selectivity (in words): not selective
3230 nM |  | CCCCn1c(=O)c2c(ncn2[C@@H]2O[C@H](C(=O)OC)[C@@H](O)[C@H]2O)n(CCCC)c1=O [Compound 122, methyl 1,3-di-n-butylxanthine-7-β-D-ribofuronate] | Ki (Table 4, [125I]AB-MECA, CHO/rat A3, read-out: Ki (A3)): 3230 ± 590 nM; A2/A3 (rat): > 1
167 ± 26 nM |  | OC[C@H]1O[C@@H](n2cnc3c(NC4CCCCC4)ncnc32)[C@H](O)[C@@H]1O [Compound 5, N^6 -cyclohexyladenosine] | 
1 ± 0.3 nM |  | CNC(=O)[C@H]1O[C@@H](n2cnc3c(NCc4cccc(Br)c4)ncnc32)[C@H](O)[C@@H]1O [Compound 41, N^6-(3-bromobenzyl)-NMCA] | 
40700 nM |  | Nc1nc(SCc2ccc([N+](=O)[O-])cc2)c2ncn([C@@H]3O[C@H](CO)[C@@H](O)[C@H]3O)c2n1 [Compound 87, (4-nitrobenzyl)-6-thioguanosine, reference compound] | Ki (read-out: Ki at A3 receptors): 41000 nM
 | 31.3 ± 6% | Nc1ncnc2c1nc(Br)n2[C@@H]1O[C@H](CO)[C@@H](O)[C@H]1O [Compound 31, 8-bromoadenosine, reference compound] | IC50: > 100000 nM
 | 21.1 ± 13.3% | Cn1c(=O)c2c(ncn2CCO)n(C)c1=O [Compound 116, 7-β-hydroxyethylT, reference compound] | 
14 ± 3 nM |  | CNC(=O)[C@H]1O[C@@H](n2cnc3c(NCc4ccc(N)cc4)ncnc32)[C@H](O)[C@@H]1O [Compound 50, N^6-(4-aminobenzyl)-NMCA] | 
 | 16.8 ± 9.5% | Cn1c(=O)c2[nH]c(Cl)nc2n(C)c1=O [Compound 132, 8-chloroT, reference compound] | 
802 ± 279 nM |  | OC[C@H]1O[C@@H](n2cnc3c(Nc4ccccc4)ncnc32)[C@H](O)[C@@H]1O [Compound 6, N^6 -phenyladenosine] | 
 |  | N=C(N)NC(=O)c1nc(Cl)c(N)nc1N [Compound 97, amiloride] | Ki (Ki at A3 receptors): ≥ 100000 nM; inhibition at 100 µM (at 100 μM): 22 ± 3.5%
0.88 ± 0.21 nM |  | CCNC(=O)[C@H]1O[C@@H](n2cnc3c(NCc4cccc(I)c4)ncnc32)[C@H](O)[C@@H]1O [Compound 60, N^6-(3-iodobenzyl)-NECA] | 
27 ± 5 nM |  | CCNC(=O)[C@H]1O[C@@H](n2cnc3c(=N)n(Cc4ccccc4[N+](=O)[O-])cnc32)[C@H](O)[C@@H]1O [Compound 38, N'-(2-nitrobenzyl)NECA] | 

SMILES | Ki [1] | inhibition at 100 µM | further results
Cn1c(=O)c2[nH]c(C3CCCC3)nc2n(C)c1=O [Compound 128, 8-cyclopentylT] |  | 38.7 ± 2.5% | 
CCCn1c(=O)c2[nH]c(-c3ccc(OCC(=O)NCCN)cc3)nc2n(CCC)c1=O [Compound 133, 8-{4-[({[(2-aminoethyl)amino]carbonyl}methyl)oxy]phenyl}-1,3-dipropylxanthine] |  | 7.1 ± 0.9% | 
Nc1ncnc2c1ncn2[C@H]1O[C@H](CO)[C@@H](O)[C@H]1O [Compound 69, α-D-adenosine] |  | 14.2 ± 6.5% | IC50: > 100000 nM

— patent US5773423A (priority 1994, dated 1998)
